Laboratory results published in patent publication US8293742B2, “Preferential vasoconstriction compositions and methods of use” (Alpha Synergy Development, Inc., priority 2008, dated 2012).

What was measured:
[1] = test system: rebound hyperemia; conditions: current concentration range for treating glaucoma of about 0.1% to 0.2%; cited from earlier work
[2] = test system: vasoconstriction, rebound hyperemia, intraocular pressure, corneal endothelial cell pump; conditions: concentrations of brimonidine of 0.10% and higher, FIG. 2
[3] = test system: postoperative hyperemia and conjunctival hemorrhage; conditions: Brimonidine 0.2%, used off label; cited from earlier work
[4] = test system: nasal congestion; conditions: 0.03% nasal spray repeated for one week, n of 1
[5] = test system: postoperative hyperemia and conjunctival hemorrhage; assay: Lasik prophylaxis (Example 2)
[6] = test system: eyes of a patient with an ocular condition; conditions: brimonidine at 0.033%, left eye, 4 hrs after FIG. 4D

Brc1c(N=C2NCCN2)ccc2nccnc12.O=C(O)C(O)C(O)C(=O)O [brimonidine, 5-bromo-6-(2-imidazolidinylideneamino)quinoxaline L-tartrate]
rebound hyperemia (primary or delayed onset vasodilation) [1]: significant rebound hyperemia | rebound [2]: rebound virtually identical to tetrahydrozaline, naphazoline and oxymetazoline | flap dislocation rates [3]: 5-10% | rebound [4]: without rebound | Flap dislocation rate ([5]; Lasik, Naphcon-A 50 patients (85 procedures), brimonidine 0.02% 10-20 minutes preoperatively, initial trial): under 1% | adverse cardiovascular events ([5]; brimonidine 0.02%): No adverse cardiovascular events occurred | allergic reactions ([5]; brimonidine 0.02%): No significant allergic reactions | Flap dislocation rate ([5]; brimonidine 0.02%, group expanded to over 500 eyes): under 1% | rebound hyperemia after third application [6]: without rebound hyperemia
